The chains behind the UniProt entries cited, without tags or fusion partners. Where a name states a change or a piece, a line headed by the entry shows the natural chain unless it says otherwise.
UniProt P43490: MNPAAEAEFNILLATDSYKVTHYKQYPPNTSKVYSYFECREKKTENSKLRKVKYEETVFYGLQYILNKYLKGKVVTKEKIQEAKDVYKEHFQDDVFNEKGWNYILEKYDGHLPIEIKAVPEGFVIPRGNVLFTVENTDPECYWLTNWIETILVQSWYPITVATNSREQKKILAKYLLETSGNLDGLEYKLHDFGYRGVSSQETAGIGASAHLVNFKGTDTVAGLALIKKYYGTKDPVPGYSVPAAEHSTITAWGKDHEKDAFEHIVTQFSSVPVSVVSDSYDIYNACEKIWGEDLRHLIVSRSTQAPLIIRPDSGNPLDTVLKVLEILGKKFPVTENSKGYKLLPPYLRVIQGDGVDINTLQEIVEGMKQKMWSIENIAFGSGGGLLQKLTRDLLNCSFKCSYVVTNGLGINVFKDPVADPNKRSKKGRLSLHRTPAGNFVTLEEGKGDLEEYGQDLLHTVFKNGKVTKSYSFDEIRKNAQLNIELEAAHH

According to patent publication US10730889B2, “Amido spirocyclic amide and sulfonamide derivatives” (Forma TM, LLC, priority 2012, dated 2020):

The compounds below were run against NAMPT (Homo sapiens (Human), UniProt P43490) (assay: Biochemical inhibition assay (NAMPT enzymatic reaction, NMN quantified by mass spectrometry)). Details: not given.
`CC(C)(C)NC(=O)C(=O)N1CCC2(CC1)CC2CNC(=O)c1cc2ccncc2o1` (stereo not drawn) [Example 54, N-[[6-(2-(tert-butylamino)-2-oxo-acetyl]-6-azaspiro[2.5]octan-2-yl]methyl]furo[2,3-c]pyridine-2-carboxamide] showed an IC50 of 2000 nM. Work on `Cc1nc(C(=O)N2CCC3(CC2)CC3CNC(=O)c2cc3ccncc3o2)c(C)o1` (stereo not drawn) [Example 334, N-[[6-(2,5-dimethyloxazole-4-carbonyl)-6-azaspiro[2.5]octan-2-yl]methyl]furo[2,3-c]pyridine-2-carboxamide] yielded an IC50 of 59.9 nM. `Cc1nn(C)cc1C(=O)N1CCC2(CC1)CC2CNC(=O)c1cc2ccncc2o1` (stereo not drawn) [Example 335, N-[[6-(1,3-dimethylpyrazole-4-carbonyl)-6-azaspiro[2.5]octan-2-yl]methyl]furo[2,3-c]pyridine-2-carboxamide] gave an IC50 of 320 nM. Compound `O=C(NCC1CC12CCN(C(=O)c1cnco1)CC2)c1cc2ccncc2o1` (stereo not drawn) [Example 336, N-[[6-(oxazole-5-carbonyl)-6-azaspiro[2.5]octan-2-yl]methyl]furo[2,3-c]pyridine-2-carboxamide] has an IC50 of 37.8 nM. For `O=C(NCC1CC12CCN(C(=O)c1cnoc1)CC2)c1cc2ccncc2o1` (stereo not drawn) [Example 337, N-[[6-(isoxazole-4-carbonyl)-6-azaspiro[2.5]octan-2-yl]methyl]furo[2,3-c]pyridine-2-carboxamide], the IC50 was 27.5 nM. `O=C(NCC1CC12CCN(C(=O)c1ncc[nH]1)CC2)c1cc2ccncc2o1` (stereo not drawn) [Example 338, N-[[6-(1H-imidazole-2-carbonyl)-6-azaspiro[2.5]octan-2-yl]methyl]furo[2,3-c]pyridine-2-carboxamide] showed an IC50 of 169 nM. `CN1CCN(c2ccc(C(=O)N3CCC4(CC3)CC4CNC(=O)c3cc4ccncc4o3)cc2)CC1` (stereo not drawn) [Example 339, N-[[6-[4-(4-Methylpiperazin-1-yl)benzoyl]-6-azaspiro[2.5]octan-2-yl]methyl]furo[2,3-c]pyridine-2-carboxamide] gave an IC50 of 13.8 nM. Compound `O=C(NCC1CC12CCN(C(=O)c1cnc3[nH]cnc3c1)CC2)c1cc2ccncc2o1` (stereo not drawn) [Example 340, N-[[6-(3H-imidazo[4,5-b]pyridine-6-carbonyl)-6-azaspiro[2.5]octan-2-yl]methyl]furo[2,3-c]pyridine-2-carboxamide] has an IC50 of 66.3 nM. Work on `Cc1ccc(C(=O)N2CCC3(CC2)CC3CNC(=O)c2cc3ccncc3o2)nc1` (stereo not drawn) [Example 341, N-[[6-(5-methylpyridine-2-carbonyl)-6-azaspiro[2.5]octan-2-yl)methyl]furo[2,3-c]pyridine-2-carboxamide] yielded an IC50 of 162 nM. For `CN1CCN(Cc2cccc(C(=O)N3CCC4(CC3)CC4CNC(=O)c3cc4cnccc4[nH]3)c2)CC1` (stereo not drawn) [Example 344, N-[[6-[3-[(4-methylpiperazin-1-yl)methyl]benzoyl]-6-azaspiro[2.5]octan-2-yl]methyl]-1H-pyrrolo[3,2-c]pyridine-2-carboxamide], the IC50 was 97.3 nM. `CC1(C)CC1C(=O)N1CCC2(CC1)CC2CNC(=O)c1cc2cnccc2[nH]1` (stereo not drawn) [Example 348, N-[[6-(2,2-dimethylcyclopropanecarbonyl)-6-azaspiro[2.5]octan-2-yl]methyl]-1H-pyrrolo[3,2-c]pyridine-2-carboxamide] gave an IC50 of 102 nM. In the case of `O=C(NCC1CC12CCN(C(=O)c1cc(C3CC3)n[nH]1)CC2)N1Cc2ccncc2C1` (stereo not drawn) [Example 353, N-[[6-(3-cyclopropyl-1H-pyrazole-5-carbonyl)-6-azaspiro[2.5]octan-2-yl]methyl]-1,3-dihydropyrrolo[3,4-c]pyridine-2-carboxamide], the IC50 is reported as 23.8 nM. `Cn1cc(-c2ccno2)c(C(=O)N2CCC3(CC2)CC3CNC(=O)N2Cc3ccncc3C2)n1` (stereo not drawn) [Example 354, N-[[6-(4-isoxazol-5-yl-1-methyl-pyrazole-3-carbonyl)-6-azaspiro[2.5]octan-2-yl]methyl]-1,3-dihydropyrrolo[3,4-c]pyridine-2-carboxamide] gave an IC50 of 28.8 nM. Work on `N#Cc1ccccc1CC(=O)N1CCC2(CC1)CC2CNC(=O)N1Cc2ccncc2C1` (stereo not drawn) [Example 357, N-[[6-[2-(2-cyanophenyl)acetyl]-6-azaspiro[2.5]octan-2-yl]methyl]-1,3-dihydropyrrolo[3,4-c]pyridine-2-carboxamide] yielded an IC50 of 23.6 nM. `CC1(NC(=O)N2CCC3(CC2)CC3CNC(=O)N2Cc3ccncc3C2)COC1` (stereo not drawn) [Example 361, N-[[6-[(3-methyloxetan-3-yl)carbamoyl]-6-azaspiro[2.5]octan-2-yl]methyl]-1,3-dihydropyrrolo[3,4-c]pyridine-2-carboxamide] gave an IC50 of 35.7 nM. Compound `CN1CCN(c2ccc(C(=O)N3CCC4(CC3)CC4CNC(=O)c3cc4cnccc4[nH]3)cc2)CC1` (stereo not drawn) [Example 363, N-[[6-[4-(4-methylpiperazin-1-yl)benzoyl]-6-azaspiro[2.5]octan-2-yl]methyl]-1H-pyrrolo[3,2-c]pyridine-2-carboxamide] has an IC50 of 50.5 nM. Compound `CC1(C)CC1C(=O)N1CCC2(CC1)CC2CNC(=O)c1cc2cnccc2[nH]1` (stereo not drawn) [Example 364, N-[[6-(2,2-dimethylcyclopropanecarbonyl)-6-azaspiro[2.5]octan-2-yl]methyl]-1H-pyrrolo[3,2-c]pyridine-2-carboxamide] has an IC50 of 365 nM. With `O=C(NCC1CC12CCN(C(=O)c1cc(C3CC3)n[nH]1)CC2)c1cc2cnccc2[nH]1` (stereo not drawn) [Example 368, N-[[6-(3-cyclopropyl-1H-pyrazole-5-carbonyl)-6-azaspiro[2.5]octan-2-yl]methyl]-1H-pyrrolo[3,2-c]pyridine-2-carboxamide] the IC50 was 170 nM. `Cn1cc(-c2ccno2)c(C(=O)N2CCC3(CC2)CC3CNC(=O)c2cc3cnccc3[nH]2)n1` (stereo not drawn) [Example 369, N-[[6-(4-isoxazol-5-yl-1-methyl-pyrazole-3-carbonyl)-6-azaspiro[2.5]octan-2-yl]methyl]-1H-pyrrolo[3,2-c]pyridine-2-carboxamide] showed an IC50 of 167 nM. With `Cc1nc(C)c(C(=O)N2CCC3(CC2)CC3CNC(=O)c2cc3cnccc3[nH]2)o1` (stereo not drawn) [Example 370, N-[[6-(2,4-dimethyloxazole-5-carbonyl)-6-azaspiro[2.5]octan-2-yl]methyl]-1H-pyrrolo[3,2-c]pyridine 2-carboxamide] the IC50 was 169 nM. Work on `CC1(OC(=O)N2CCC3(CC2)CC3CNC(=O)N2Cc3ccncc3C2)CCOC1` (stereo not drawn) [Example 375] yielded an IC50 of 8.88 nM. Work on `CC(C)(C)CS(=O)(=O)N1CCC2(CC1)CC2CNC(=O)c1cc2ccncc2o1` (stereo not drawn) [Example 378, N-[[6-(2,2-dimethylpropylsulfonyl)-6-azaspiro[2.5]octan-2-yl]methyl]furo[2,3-c]pyridine-2-carboxamide] yielded an IC50 of 241 nM. With `CC(C)(C)CS(=O)(=O)N1CCC2(CC1)CC2CNC(=O)c1cc2cnccc2[nH]1` (stereo not drawn) [Example 379, N-[[6-(2,2-dimethylpropylsulfonyl)-6-azaspiro[2.5]octan-2-yl]methyl]-1H-pyrrolo[3,2-c]pyridine-2-carboxamide] the IC50 was 1470 nM. Work on `Cc1nc(C)c(C(=O)N2CCC3(CC2)CC3CNC(=O)c2cc3ccncc3o2)o1` (stereo not drawn) [Example 385, N-[[6-(2,4-dimethyloxazole-5-carbonyl)-6-azaspiro[2.5]octan-2-yl]methyl]furo[2,3-c]pyridine-2-carboxamide] yielded an IC50 of 82.4 nM. Work on `CC(C)(O)COCC(=O)N1CCC2(CC1)CC2CNC(=O)c1cc2cnccc2[nH]1` (stereo not drawn) [Example 387, N-[[6-[2-(2-hydroxy-2-methyl-propoxy)acetyl]-6-azaspiro[2.5]octan-2-yl]methyl]-1H-pyrrolo[3,2-c]pyridine-2-carboxamide] yielded an IC50 of 724 nM. Work on `Cc1nc(C(F)(F)F)c(C(=O)N2CCC3(CC2)CC3CNC(=O)N2Cc3ccncc3C2)s1` (stereo not drawn) [Example 388] yielded an IC50 of 34 nM. Work on `CC1(C)CC1C(=O)N1CCC2(CC1)CC2CNC(=O)N1Cc2ccncc2C1` (stereo not drawn) [Example 389] yielded an IC50 of 21.6 nM. `CC(C)(C)OC(=O)N1CCC2(CC1)CC2CNC(=O)NCc1ccc2nccn2c1` (stereo not drawn) [Example 392, tert-butyl 2-[(imidazo[1,2-a]pyridin-6-ylmethylcarbamoylamino)methyl]-6-azaspiro[2.5]octane-6-carboxylate] was tested, and the IC50 was 699 nM. Work on `O=C(NCC1CC12CCN(C(=O)N1CCOCC1)CC2)N1Cc2ccncc2C1` (stereo not drawn) [Example 395] yielded an IC50 of 193 nM. `CC(C)(O)CCC(=O)N1CCC2(CC1)CC2CNC(=O)c1cc2cnccc2[nH]1` (stereo not drawn) [Example 397, N-[[6-(4-hydroxy-4-methyl-pentanoyl)-6-azaspiro[2.5]octan-2-yl]methyl]-1H-pyrrolo[3,2-c]pyridine-2-carboxamide] showed an IC50 of 412 nM. With `O=C(NCC1CC12CCN(C(=O)c1cnccc1C(F)(F)F)CC2)N1Cc2ccncc2C1` (stereo not drawn) [Example 398] the IC50 was 12.5 nM. For `CC1(O)CC(CC(=O)N2CCC3(CC2)CC3CNC(=O)c2cc3cnccc3[nH]2)C1` (stereo not drawn) [Example 400, N-[[6-[2-(3-hydroxy-3-methyl-cyclobutyl)acetyl]-6-azaspiro[2.5]octan-2-yl]methyl]-1H-pyrrolo[3,2-c]pyridine-2-carboxamide], the IC50 was 136 nM. `CC(C)(C)OC(=O)N1CCC2(CC1)CC2CNC(=O)c1ccc2nccn2n1` (stereo not drawn) [Example 402, tert-butyl 2-[(imidazo[1,2-b]pyridazine-6-carbonylamino)methyl]-6-azaspiro[2.5]octane-6-carboxylate] was tested, and the IC50 was 557 nM. For `O=C(Cc1cncnc1)N1CCC2(CC1)CC2CNC(=O)N1Cc2ccncc2C1` (stereo not drawn) [Example 407], the IC50 was 13.1 nM. Compound `O=C(NCC1CC12CCN(C(=O)c1ccccc1)CC2)c1cc2ccncc2o1` (stereo not drawn) [Example 411, N-((6-benzoyl-6-azaspiro[2.5]octan-2-yl)methyl]furo[2,3-c]pyridine-2-carboxamide] has an IC50 of 121 nM. `Cc1ncoc1C(=O)N1CCC2(CC1)CC2CNC(=O)N1Cc2ccncc2C1` (stereo not drawn) [Example 415] gave an IC50 of 12.8 nM. `CC(C)OC(=O)N1CCC2(CC1)CC2CNC(=O)c1cc2ccncc2o1` (stereo not drawn) [Example 416, isopropyl 2-[(furo[2,3-c]pyridine-2-carbonylamino)methyl]-6-azaspiro[2.5]octane-6-carboxylate] was tested, and the IC50 was 82 nM. `CC1(OC(=O)N2CCC3(CC2)CC3CNC(=O)c2cc3ccncc3o2)COC1` (stereo not drawn) [Example 417, (3-methyloxetan-3-yl) 2-[(furo[2,3-c]pyridine-2-carbonylamino)methyl]-6-azaspiro[2.5]octane-6-carboxylate] showed an IC50 of 50.6 nM.

The compounds below were run on A2780 cells (assay: In-vitro cell proliferation assay (SRB, 72 hours)). Details: Homo sapiens, A2780, 72 h.
Type: cell-based
Compound `CC(C)(C)NC(=O)C(=O)N1CCC2(CC1)CC2CNC(=O)c1cc2ccncc2o1` (stereo not drawn) [Example 54, N-[[6-(2-(tert-butylamino)-2-oxo-acetyl]-6-azaspiro[2.5]octan-2-yl]methyl]furo[2,3-c]pyridine-2-carboxamide] has an IC50 of 2000 nM.
